Only a part is listed here, and it is no random draw. Activity calls are given as the source filed them. Rule as the data show it: active = activation above about 33% (passing the limit was not always enough); inactive = the rest.
Target: Neuropeptide Y receptor type 1 (Homo sapiens) (UniProt P25929)
Experiment: NPY-Y1 receptor potentiators or agonists, primary screen, cell-based (AID 1304);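 also: cells stimulated with NPY at EC10 then isoproterenol at EC100; 0% = low agonist plus stimulus and 100% = saturating agonist plus stimulus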
Conditions: NPY-Y1 expressing cells, potentiator/agonist activation; at 3.6 µM; stronger effect = higher value

By UniProt entry, the sequences of proteins in these tests, tags left out.
UniProt P25929, whole entry: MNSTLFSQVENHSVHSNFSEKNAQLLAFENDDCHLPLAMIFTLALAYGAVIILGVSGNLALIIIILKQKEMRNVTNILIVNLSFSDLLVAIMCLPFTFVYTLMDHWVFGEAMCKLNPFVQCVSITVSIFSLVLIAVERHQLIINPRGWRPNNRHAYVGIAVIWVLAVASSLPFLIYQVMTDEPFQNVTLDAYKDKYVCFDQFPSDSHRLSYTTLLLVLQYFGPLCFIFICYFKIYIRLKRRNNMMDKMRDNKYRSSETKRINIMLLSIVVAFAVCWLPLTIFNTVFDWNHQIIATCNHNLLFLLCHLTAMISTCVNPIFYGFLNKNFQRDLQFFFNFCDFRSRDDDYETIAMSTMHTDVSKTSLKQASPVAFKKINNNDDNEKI

| Compound | activation |
| --- | --- |
| Cc1ccc(NP(C)(=O)Oc2ccccc2)c(C)c1 (stereo not drawn) | inactive: 22.9% |
| COc1ccccc1OP(C)(=O)Nc1ccc(C)cc1 (stereo not drawn) | inactive: 3.62% |
| CCOC(=O)c1ccc(NP(C)(=O)Oc2ccccc2)cc1 (stereo not drawn) | inactive: 12.6% |
| Cc1cc(C)cc(OP(C)(N)=O)c1 (stereo not drawn) | inactive: 8.47% |
| COc1ccc(OP(C)(=O)Nc2cccc(F)c2)cc1 (stereo not drawn) | inactive: 29.6% |
| COc1ccccc1OP(C)(=O)Nc1cc(Cl)ccc1C (stereo not drawn) | inactive: -10.9% |
| O=[N+]([O-])c1ccc2c(c1)C=Nc1ccccc1O2 | inactive: 16.8% |
| Cc1cccc(C)c1OP(C)(N)=O (stereo not drawn) | inactive: -13.6% |
| CC(C)(C)c1ccc(OP(C)(=O)Nc2ccc(SC(F)(F)F)cc2)cc1 (stereo not drawn) | inactive: -2.93% |
| CCN(CC)CCCOC(=O)C(O)(c1ccccc1)c1ccccc1 | inactive: -6.21% |
| CCOC(=O)c1ccc(NP(C)(=O)Oc2ccc(OC)cc2)cc1 (stereo not drawn) | inactive: -10.2% |
| CCOP(C)(=S)SCC(=O)NC(C)C(=O)O (stereo not drawn) | inactive: -8.22% |
| CP(=O)(Nc1ccccn1)Oc1ccc(Cl)cc1 (stereo not drawn) | inactive: -20.1% |
| CP(=O)(Oc1ccccc1)OC(c1ccccc1)C(F)(F)F (stereo not drawn) | inactive: 8.59% |
| Cc1cccc(C)c1OP(C)(=O)Nc1ccc(SC(F)(F)F)cc1 (stereo not drawn) | inactive: 16.3% |
| CP(=O)(Nc1ccc(SC(F)(F)F)cc1)Oc1ccc(Cl)cc1 (stereo not drawn) | inactive: 5.74% |
| Cc1cc(C)cc(OP(C)(=O)Nc2ccc(SC(F)(F)F)cc2)c1 (stereo not drawn) | inactive: -18% |
| CP(=O)(NC(=O)Nc1ccccc1)Oc1ccccc1 (stereo not drawn) | inactive: -18.9% |
| CCc1ccc(OP(C)(=O)N2CCN(c3ccc([N+](=O)[O-])cc3)CC2)cc1 (stereo not drawn) | inactive: -9.98% |
| CP(=S)(Nn1cnnc1)Oc1ccccc1 (stereo not drawn) | inactive: -27.2% |
| CP(=O)(Nc1ccccc1Br)Oc1ccccc1 (stereo not drawn) | inactive: 1.9% |

| Compound | activation |
| --- | --- |
| COc1ccccc1OP(C)(=O)Nc1ccccc1 (stereo not drawn) | inactive: -1.71% |
| COc1ccccc1OP(C)(=O)Nc1c(C)cccc1C (stereo not drawn) | inactive: 9.83% |
| CN1CCCCC1COC(=O)C1(O)c2ccccc2CCc2ccccc21 (stereo not drawn) | inactive: -40.5% |
| CCCOc1ccc(NP(C)(=O)Oc2ccc(Cl)cc2)cc1 (stereo not drawn) | inactive: -16.5% |
| CP(=O)(Nc1ccc(SC(F)(F)F)cc1)Oc1ccccc1 (stereo not drawn) | inactive: 13.2% |
| CCOC(=O)C(CC)C1=NC(C)(C)Cc2ccccc21.O=[N+]([O-])c1cc([N+](=O)[O-])c(O)c([N+](=O)[O-])c1 (stereo not drawn) | inactive: -24.6% |
| O=[N+]([O-])c1cc([N+](=O)[O-])c(Nc2nnnn2CCO)c([N+](=O)[O-])c1 | inactive: 2.82% |
| Cc1nc2ccc3ccccc3c2s1.O=[N+]([O-])c1cc([N+](=O)[O-])c(O)c([N+](=O)[O-])c1 | inactive: -17.2% |
| O=[N+]([O-])c1cc([N+](=O)[O-])c(-n2nnc3ccccc32)c([N+](=O)[O-])c1 | inactive: 0.01% |
| Cc1ccc(C)c(NP(C)(=O)Oc2ccccc2)c1 (stereo not drawn) | inactive: 6.58% |
| Cc1cc(C)cc(OP(C)(=O)Nc2ccccn2)c1 (stereo not drawn) | inactive: 5.38% |
| CP(=O)(Nc1cccc(Br)c1)Oc1ccccc1 (stereo not drawn) | inactive: -8.16% |
| COc1ccccc1OP(C)(=O)Nc1cccc(Br)c1 (stereo not drawn) | inactive: 6.89% |
| CCOC(=O)c1ccc(NP(C)(=O)Oc2cc(C)cc(C)c2)cc1 (stereo not drawn) | inactive: -21.4% |
| Cc1cc(C)cc(OP(C)(=O)Nc2ccc(C)cc2C)c1 (stereo not drawn) | inactive: 5.83% |
| CC1=NCCc2c1[nH]c1ccccc21.O=[N+]([O-])c1cc([N+](=O)[O-])c(O)c([N+](=O)[O-])c1 | inactive: -31.7% |
| O=C(O)c1cccc(Nc2c([N+](=O)[O-])cc([N+](=O)[O-])cc2[N+](=O)[O-])c1 | inactive: 7.54% |
| CCN(CC)CCCOC(=O)C(O)(c1ccccc1)C1CCCCC1 (stereo not drawn) | inactive: -39% |
| CP(=O)(Nc1ccccc1)Oc1ccc(F)cc1 (stereo not drawn) | inactive: 20.5% |
| CCCCCOc1ccc(NP(C)(=O)Oc2ccc(Cl)cc2Cl)cc1 (stereo not drawn) | inactive: -23% |
| CCOC(=O)c1ccc(NP(C)(=O)Oc2ccc(F)cc2)cc1 (stereo not drawn) | inactive: 1.1% |

| Compound | activation |
| --- | --- |
| COc1ccc(OP(C)(=O)Nc2ccc(SC(F)(F)F)cc2)cc1 (stereo not drawn) | inactive: 12.4% |
| O=C(OC1CN2CCC1CC2)c1ccc([N+](=O)[O-])cc1 (stereo not drawn) | inactive: 2.37% |
| O=C(OCCN1CCN(CCOCc2ccccc2)CC1)C(O)(c1ccccc1)c1ccccc1 | inactive: 5.7% |
| CP(=O)(Nc1ccccc1F)Oc1ccccc1 (stereo not drawn) | inactive: 9.33% |
| CC(C)c1ccc(OP(C)(=O)Nc2ccc(SC(F)(F)F)cc2)cc1 (stereo not drawn) | inactive: 2.42% |
| CP(=O)(Nc1ccc2c(c1)OCCO2)Oc1ccccc1 (stereo not drawn) | inactive: 12.1% |
| Cc1ccccc1NP(C)(=O)Nc1ccccc1C | inactive: 0.53% |
| CP(=O)(Nc1ccc(SC(F)(F)F)cc1)Oc1ccc(F)cc1 (stereo not drawn) | inactive: 36.2% |
| CCOP(C)(=S)SCC(=O)NC(C)(CC)C(=O)O (stereo not drawn) | inactive: 3.74% |
| O=[N+]([O-])c1ccc(OP2(=O)COCCO2)cc1 (stereo not drawn) | inactive: 1.49% |
| O=[N+]([O-])c1cc([N+](=O)[O-])c(NCC2CCS(=O)(=O)C2)c([N+](=O)[O-])c1 (stereo not drawn) | inactive: 3.49% |
| Cc1cc(-c2cccc3ccccc23)c(C)cn1.O=[N+]([O-])c1cc([N+](=O)[O-])c(O)c([N+](=O)[O-])c1 | inactive: -12.8% |
| COc1ccc(OP(C)(=O)Nc2cccc(Br)c2)cc1 (stereo not drawn) | inactive: 18.4% |
| CN(C)CCOC(=O)C(O)(c1ccccc1)C1CCCCC1 (stereo not drawn) | inactive: 2.19% |
| COc1ccc(NP(C)(=O)Oc2ccccc2OC)cc1 (stereo not drawn) | inactive: 7.09% |
| CCOC(=O)c1ccc(NP(C)(=O)Oc2ccc(Cl)cc2)cc1 (stereo not drawn) | inactive: -3.96% |
| CP(=O)(OC12CC3CC(CC(C3)C1)C2)OC12CC3CC(CC(C3)C1)C2 | inactive: 3.4% |
| COc1ccccc1OP(C)(=O)Nc1ccccc1Br (stereo not drawn) | inactive: 17.4% |
| CC(C)(C)c1ccc(OP(C)(=O)O)cc1 | inactive: -19.5% |
| CP(=O)(Nc1ccc(Cl)cc1)Oc1ccc(F)cc1 (stereo not drawn) | inactive: 12.6% |
| CN(C)C(=O)c1c([N+](=O)[O-])cc([N+](=O)[O-])cc1[N+](=O)[O-] | inactive: 12.5% |

| Compound | activation |
| --- | --- |
| COc1ccc(OP(C)(=O)Nc2ccc(Br)cc2)cc1 (stereo not drawn) | inactive: 2.85% |
| CCN(CC)CC(O)COC(=O)C(O)(c1ccccc1)C1CCCCC1 (stereo not drawn) | inactive: -18.9% |
| O=C(OCCCN1CCCC1)C(O)(c1ccccc1)C1CCCCC1 (stereo not drawn) | inactive: -2.81% |
| COc1ccccc1OP(C)(=O)Nc1c(C)n(C)n(-c2ccccc2)c1=O (stereo not drawn) | inactive: 14.6% |
| CCc1ccc(OP(C)(=O)Nc2cccnc2)cc1 (stereo not drawn) | inactive: -7.48% |
| CP(=O)(Oc1ccccc1)N1CCOC1=O (stereo not drawn) | inactive: 6.15% |
| Cc1c(NP(C)(=O)Oc2ccc(C(C)C)cc2)c(=O)n(-c2ccccc2)n1C (stereo not drawn) | inactive: -10.7% |
| O=[N+]([O-])c1cc([N+](=O)[O-])c(Nc2ccccn2)c([N+](=O)[O-])c1 | inactive: 2.09% |
| COc1ccccc1OP(C)(=O)Nc1ccc(C)cc1C (stereo not drawn) | inactive: -4.39% |
| CP(=O)(Nc1ccccn1)Oc1ccccc1 (stereo not drawn) | inactive: 10.5% |
| CCc1ccc(OP(C)(=O)O)cc1 | inactive: -9.99% |
| COc1ccccc1OP(C)(=O)Nc1ccc(Br)cc1 (stereo not drawn) | inactive: 1.66% |
| COc1ccc(OP(C)(=O)Nc2ccccn2)cc1 (stereo not drawn) | inactive: 4.25% |
| CN(C)CCOC(=O)C(O)(c1ccccc1)C1CCCC1 (stereo not drawn) | inactive: -1.62% |
| Cc1nc2ccc3ccccc3c2o1.O=[N+]([O-])c1cc([N+](=O)[O-])c(O)c([N+](=O)[O-])c1 | inactive: -2.99% |
| CP(=O)(Nc1ccc(Cl)cc1Cl)Oc1ccccc1 (stereo not drawn) | inactive: -2.06% |
| CP(=O)(OCCOc1ccccc1)OCCOc1ccccc1 | inactive: -11.9% |
| Cc1cc(C)cc(OP(C)(=O)Nc2cccc(C(F)(F)F)c2)c1 (stereo not drawn) | inactive: 8.78% |
| COc1ccccc1OP(C)(=O)Nc1ccc(C)c(C)c1 (stereo not drawn) | inactive: 0.83% |
| COc1ccc(OP(C)(=O)Nc2ccccc2Br)cc1 (stereo not drawn) | inactive: 3.85% |

Reference: PubChem BioAssay AID1304 (The Scripps Research Institute Molecular Screening Center, 2008)
